The target in this assay is human LPAR1 (Homo sapiens (Human), UniProt Q92633). The experiment in a line: LPAR1 intracellular calcium mobilization assay (antagonist mode, FLIPR). Particulars: read-out: LPAR1 (EC50; nM), CHO-K1 EDG2 cells expressing human LPAR1, LPA 18:2 at EC80 (100 nM), test compound 0.5 nM to 10 μM. Here is the method:
In vitro LPAR1 activity was measured in an intracellular calcium mobilization assay.
CHO-K1 EDG2 cells (DiscoverX cat #93-0644C2) expressing human LPAR1 (NM_001401.3) were seeded in a total volume of 25 μL of Dulbecco's Modification of Eagle's Medium (DMEM) with 10% Fetal Bovine Serum, 1× PenStrepGlutamine, 300 μg/ml Hygromycin, and 800 μg/ml G418 into 384-well tissue culture plate (Grenier #781091) at 15,000 cells/well and incubated at 37° C. overnight. Prior to testing, 25 μL Calcium Loading Dye Component A (FLIPR Calcium 6 Assay Kit Molecular Device #R8190) and 2.5 mM Probenecid (Invitrogen #P36400, prepared fresh) in Hank's Balanced Salt Solution (Corning #21-023-CV), 20 mM HEPES (Corning #25-060-CI), 0.1% Bovine Serum Albumin (Sigma-Aldrich #A7906-500G) was add to the cells for 60 minutes at 37° C.
Agonist dose curves of LPA 18:2 (Avanti Polar Lipids cat #857138, 0.5 nM to 10 μM) were recorded to determine the LPA 18:2 EC80 for subsequent antagonist assays. […] Calcium mobilization was monitored for 5 min and 10 μL 6×LPA in HBSS/20 mM Hepes/0.1% bovine serum albumin (BSA) was added to the cells 5 seconds into the assay.
[…] . […] Antagonist activity was measured on a FLIPR Tetra. Calcium mobilization was monitored for 3.5 minutes and 10 μL 6× EC80 LPA in HBSS, 20 mM HEPES, and 0.1% BSA was added to the cells 5 seconds into the assay. […]
A general note: Calcium assays in cells follow changes in intracellular calcium, usually with a dye or a luminescent sensor.

By UniProt entry, the sequences of proteins in these tests, tags left out.
UniProt Q92633, whole entry: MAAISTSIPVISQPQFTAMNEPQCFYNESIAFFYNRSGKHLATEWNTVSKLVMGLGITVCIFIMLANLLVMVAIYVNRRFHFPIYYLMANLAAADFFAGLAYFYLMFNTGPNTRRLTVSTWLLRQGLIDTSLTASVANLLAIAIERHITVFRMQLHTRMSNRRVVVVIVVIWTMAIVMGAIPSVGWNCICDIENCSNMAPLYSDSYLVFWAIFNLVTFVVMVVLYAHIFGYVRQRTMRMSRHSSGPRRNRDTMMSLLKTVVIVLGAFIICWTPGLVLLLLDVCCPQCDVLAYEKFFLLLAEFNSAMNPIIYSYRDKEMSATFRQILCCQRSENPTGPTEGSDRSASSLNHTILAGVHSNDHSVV

On to `C[C@@H](OC(=O)Nc1c(-c2ccc(NC(=O)c3cncnc3)cn2)nnn1C)c1cc(F)cnc1F`, for which the EC50 (usually the concentration needed to bring the measured effect to its halfway point) was 190 nM.

With `C[C@@H](OC(=O)Nc1c(-c2ccc(NC(=O)c3ccnc(Cl)c3)cn2)nnn1C)c1cccnc1F`, the EC50 came out at 27.3 nM.

Source of the values: patent US11912686B2 (Gilead Sciences, Inc., priority 2020, dated 2024).
